The source of these data is patent publication US20040106545A1, “Compounds and methods for modulating cell adhesion” (priority 1996, published 2004).

A short description of data set [1]: Stability of cyclic peptide in mouse whole blood. The data set is classed as in vitro ADME. Conditions: 37° C. Here is the method:
50 μl of a stock solution containing 12.5 μg/ml H-CHAVC-NH2 (SEQ ID NO:10) was added to mouse whole blood and incubated at 37° C. Aliquots were removed at intervals up to 240 minutes, precipitated with acetonitrile, centrifuged and analyzed by HPLC.

The next data set has as its system HMVEC. In kind it is cell-based, human. Conditions: 3 h. The protocol:
(§1) N—Ac-CHAVC-NH2 (SEQ ID NO:10) and the control peptide N—Ac-CHGVC-NH2 (SEQ ID NO:11) were evaluated for possible cytotoxic effects on human microvascular endothelial (HMVEC; Clonetics), human umbilical vein endothelial (HUVEC; ATCC #CRL-1730), IAFp2 (human fibroblast cell line; Institute Armand-Frapier, Montreal, Quebec), WI-38 (human fibroblast cell line; ATCC #CCL-75), MDA-MB231 (human breast cancer cell line; ATCC #HTB-26), and PC-3 (human prostate cancer cell line; ATCC #CRL-1435) cells utilizing the MTT assay (Plumb et al., Cancer Res. 49:4435-4440, 1989). Neither of the peptides was cytotoxic at concentrations up to and including 100 μM. Similarly, neither of the peptides was capable of inhibiting the proliferation of the above cell lines at concentrations up to 100 μM, as judged by ^3H-thymidine incorporation assays.

For data set [2], the system named is PC-3. In kind it is cell-based, human. The following applies: 3 h. The protocol: as §1
The next data set relates to IAFp2. In kind it is cell-based, human. Conditions: 3 h. Here is the method:
as §1

Another data set concerns HUVEC. In kind it is cell-based, human. Conditions: 3 h. Here is the method:
as §1

For data set [3], the system named is MDA-MB231. In kind it is cell-based, human. The following applies: 3 h. The protocol: as §1
A further data set concerns WI-38. The data set is classed as cell-based, human. Conditions: 3 h. The protocol:
as §1

In a further data set the target is T1, N-cadherin (Gallus gallus, UniProt P10288).
T1 construct: expressed in transfected cells; host or cells: 3T3 fibroblasts (monolayer)
T1 sequence (P10288 165-912): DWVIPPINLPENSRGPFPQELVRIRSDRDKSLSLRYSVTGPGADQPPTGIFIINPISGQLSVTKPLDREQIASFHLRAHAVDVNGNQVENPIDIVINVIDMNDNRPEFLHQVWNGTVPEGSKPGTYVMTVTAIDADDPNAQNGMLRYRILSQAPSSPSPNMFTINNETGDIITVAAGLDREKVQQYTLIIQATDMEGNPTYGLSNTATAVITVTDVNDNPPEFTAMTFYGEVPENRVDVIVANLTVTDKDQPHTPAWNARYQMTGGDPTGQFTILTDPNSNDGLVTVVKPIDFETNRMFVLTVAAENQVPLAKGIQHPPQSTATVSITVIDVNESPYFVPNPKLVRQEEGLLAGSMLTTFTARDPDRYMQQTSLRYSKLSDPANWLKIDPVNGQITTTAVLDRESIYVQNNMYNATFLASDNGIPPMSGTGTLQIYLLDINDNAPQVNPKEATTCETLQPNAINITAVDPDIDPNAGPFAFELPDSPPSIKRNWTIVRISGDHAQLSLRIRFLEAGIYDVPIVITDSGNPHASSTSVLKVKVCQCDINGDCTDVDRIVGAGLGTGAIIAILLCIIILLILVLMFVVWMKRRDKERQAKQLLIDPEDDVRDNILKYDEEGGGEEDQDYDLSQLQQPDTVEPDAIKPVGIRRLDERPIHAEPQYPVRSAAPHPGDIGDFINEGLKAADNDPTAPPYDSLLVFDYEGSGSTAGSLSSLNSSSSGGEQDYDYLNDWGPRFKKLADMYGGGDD
The data set is described as follows: Neurite outgrowth inhibition, rat neurons (Example 21). In kind it is cell-based. The following applies: read-out: % Inhibition of neurite outgrowth; 250 μg/mL.

In the next data set the test system is mice. The data set is described as follows: Chronic toxicity study in mice. In kind it is in vivo, mouse. The protocol:
Varying amounts of H-CHAVC-NH2 (SEQ ID NO:10; 2 mg/kg, 20 mg/kg and 125 mg/kg) were injected into mice intraperitoneally every day for three days.

For data set [4], the system named is MDA-MB231. The data set is described as follows: Cytotoxicity, MTT assay, MDA-MB231. The data set is classed as cell-based, human. The protocol: as §1
For orientation: Tetrazolium dyes change colour on reduction, which living cells bring about.

For data set [5], the system named is PC-3. The data set is described as follows: Cytotoxicity, MTT assay, PC-3. The data set is classed as cell-based, human. Here is the method: as §1

As usually defined, the pIC50 is the negative decadic logarithm of the IC50, by convention in mol/L. The low end stands for a large IC50, the high end for a small IC50. Usually inhibition stands for the change of the read-out against control, counted positive when it falls.

The structures appear in SMILES notation. pIC50: −log10 of the molar value. Where two headings read alike, the source gives them in different places.

On to `CC(C)[C@@H]1NC(=O)[C@H](C)NC(=O)[C@H](Cc2c[nH]cn2)NC(=O)[C@@H](N)CSSC[C@@H](C(N)=O)NC1=O` [H—CHAVC—NH2], for which the “% Remaining” value in data set [1] (0 min) worked out at 100.00%. For the same molecule, the “stability in blood (in words)” value in [1] (up to 240 minutes) is reported as “generally good stability in blood”. Moreover, the pIC50 in the data set on HMVEC, in the data set with PC-3 [2], with IAFp2, with HUVEC, in the data set on MDA-MB231 [3] and in the data set on WI-38 was under 4.00 throughout. In addition, the pIC50 in the data set with MDA-MB231 [4] and in the data set with PC-3 [5] was under 4.00 each time. In addition, the inhibition at 250 µg/mL on N-cadherin worked out at 0%. Further, the Body weight result with mice (mice, 2, 20 and 125 mg/kg intraperitoneally every day for three days, recovery days 4-8) is reported as “no significant differences occurred”. In addition, the clinical symptoms result with mice (mice, 2, 20 and 125 mg/kg intraperitoneally every day for three days, treatment or recovery days) is reported as “no clinical symptoms were observed”. In the data set with mice (mice, 2, 20 and 125 mg/kg ip for three days, after four day recovery), the autopsy findings entry is “no abnormalities were observed”.

As for `CC(C)[C@@H]1NC(=O)CNC(=O)[C@H](Cc2c[nH]cn2)NC(=O)[C@@H](N)CSSC[C@@H](C(N)=O)NC1=O` [H—CHGVC—NH2], the pIC50 in the data set with HMVEC, in the data set with PC-3 [2], in the data set with IAFp2, in the data set on HUVEC, with MDA-MB231 [3] and with WI-38 was under 4.00 throughout. Moreover, the pIC50 in the data set on MDA-MB231 [4] and with PC-3 [5] was under 4.00 in each case. Besides, the inhibition at 250 µg/mL at N-cadherin was 0%.
